1 compound from patent publication US6203776A, “Method for identifying adrenergic receptor antagonists having good tolerability” (University Technology Corporation, priority 1998, dated 2001) can be followed below.

The test system of the test is human β1 or β2 receptors. Put plainly: Inverse agonist activity: inhibition of basal adenylyl cyclase activity (cAMP generation) in Sf9 membranes. Format: biochemical. The protocol: Sf9 cells were transfected with a baculovirus expression system coding for human β1 or β2 receptors as described in Chidiac et al., Molec.
Adenylyl cyclase activity of Sf9 membranes was measured as described in Chidiac et al., Molec. […] The inhibition of basal cAMP generation in this system is a measure of inverse agonism.

In the case of `COc1ccccc1OCCNCC(O)COc1cccc2[nH]c3ccccc3c12` (centres unmarked) [carvedilol], where the note is “Sf9 membranes, baculovirus expression system, maximum degree of inhibition”, the “percent reduction in basal adenylyl cyclase (AC) activity, maximal reduction of AC (FIG. 1A)” value is listed as “less than 50%”. The “rank order of inverse agonist activity (FIG. 1B)” value (concentration 10×Ki for the β2 receptor) was “metoprolol>propranolol≥carvedilol>xamoterol>bucindolol”.
